One may read the Ki as a measure of affinity in units of concentration, obtained from inhibition or displacement. A higher Ki goes with lower affinity.

Protein sequences, listed by entry. Tags and fused reporters are not part of them.
UniProt P21917, whole entry: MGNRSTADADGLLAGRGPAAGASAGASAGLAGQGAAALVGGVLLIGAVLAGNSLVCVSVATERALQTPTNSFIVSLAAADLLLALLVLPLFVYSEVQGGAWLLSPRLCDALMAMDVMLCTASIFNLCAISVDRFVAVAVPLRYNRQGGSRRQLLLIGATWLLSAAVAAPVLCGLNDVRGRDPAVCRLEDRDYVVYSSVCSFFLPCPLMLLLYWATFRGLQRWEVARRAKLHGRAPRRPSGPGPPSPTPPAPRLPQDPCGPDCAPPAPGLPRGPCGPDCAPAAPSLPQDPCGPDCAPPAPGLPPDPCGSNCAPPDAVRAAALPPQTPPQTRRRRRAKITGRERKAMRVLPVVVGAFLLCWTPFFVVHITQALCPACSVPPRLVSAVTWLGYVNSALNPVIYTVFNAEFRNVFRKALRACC

This test concerns the target D(4) dopamine receptor (Homo sapiens, UniProt P21917).

Compound `c1cnc(N2CCN(Cc3ccc4c(c3)OCO4)CC2)nc1` [NSC_4850] yielded a Ki of 315 nM.

The values above are taken from BindingDB's records for PubMed 9223553 (Institut De Recherches Servier, 1997).
